For 43 compounds, viability, fold increase and outcome results are on record in PubChem BioAssay AID1224863 (Southern Research Institute, 2016).

The chains behind the UniProt entries cited, without tags or fusion partners. A line that says so, or that is headed by a name, gives the form on record, which may keep a tag or linker.
UniProt P13569, with tags, fused parts or gaps F508del: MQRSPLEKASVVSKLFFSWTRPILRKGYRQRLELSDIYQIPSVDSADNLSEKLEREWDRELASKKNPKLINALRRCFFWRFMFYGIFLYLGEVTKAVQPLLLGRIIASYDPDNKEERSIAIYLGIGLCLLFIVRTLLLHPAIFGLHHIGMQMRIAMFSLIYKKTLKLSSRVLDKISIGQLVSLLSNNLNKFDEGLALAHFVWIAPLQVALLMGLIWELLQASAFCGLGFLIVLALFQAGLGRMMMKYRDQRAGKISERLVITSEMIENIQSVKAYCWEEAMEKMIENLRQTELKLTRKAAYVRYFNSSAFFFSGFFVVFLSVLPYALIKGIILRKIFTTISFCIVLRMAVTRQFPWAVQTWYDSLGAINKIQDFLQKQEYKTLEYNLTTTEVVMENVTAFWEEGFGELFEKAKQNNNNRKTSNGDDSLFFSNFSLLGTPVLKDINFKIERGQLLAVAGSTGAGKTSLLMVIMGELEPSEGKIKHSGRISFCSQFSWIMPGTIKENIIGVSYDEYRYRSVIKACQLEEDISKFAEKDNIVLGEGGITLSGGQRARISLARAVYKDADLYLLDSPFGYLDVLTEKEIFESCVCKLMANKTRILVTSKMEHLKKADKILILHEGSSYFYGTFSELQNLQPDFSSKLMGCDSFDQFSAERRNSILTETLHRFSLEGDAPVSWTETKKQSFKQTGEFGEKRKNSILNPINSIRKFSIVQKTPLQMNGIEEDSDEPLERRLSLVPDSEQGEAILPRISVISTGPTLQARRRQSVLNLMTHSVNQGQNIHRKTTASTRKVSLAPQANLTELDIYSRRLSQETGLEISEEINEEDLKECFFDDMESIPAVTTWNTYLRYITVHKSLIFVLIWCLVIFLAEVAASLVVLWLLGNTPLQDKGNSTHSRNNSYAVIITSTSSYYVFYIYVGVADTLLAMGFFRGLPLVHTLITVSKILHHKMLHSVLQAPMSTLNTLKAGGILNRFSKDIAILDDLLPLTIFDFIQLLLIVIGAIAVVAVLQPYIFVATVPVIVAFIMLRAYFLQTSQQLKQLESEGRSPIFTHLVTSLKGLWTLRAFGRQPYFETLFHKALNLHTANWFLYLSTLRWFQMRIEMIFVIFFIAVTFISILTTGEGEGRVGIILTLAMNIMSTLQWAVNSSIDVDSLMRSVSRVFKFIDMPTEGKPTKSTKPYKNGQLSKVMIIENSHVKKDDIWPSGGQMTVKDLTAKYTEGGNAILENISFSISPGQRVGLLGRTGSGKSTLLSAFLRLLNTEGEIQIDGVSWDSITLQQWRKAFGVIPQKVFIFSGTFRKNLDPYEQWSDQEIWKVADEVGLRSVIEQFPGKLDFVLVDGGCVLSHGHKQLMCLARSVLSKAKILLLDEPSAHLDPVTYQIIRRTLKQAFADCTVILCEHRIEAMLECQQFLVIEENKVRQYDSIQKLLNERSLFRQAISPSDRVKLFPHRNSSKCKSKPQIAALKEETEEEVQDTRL

Among all 10,000 compounds or so, about 15 (0.1%) were called active.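 The calls were made as follows: active = highest signal at least 8 times the median of untreated cell-only control wells at some dose; inactive = the rest.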 A selection follows.

Test [1] is described as follows: compounds raising F508del-CFTR protein level – cell-based, HeLa F508del-CFTR, immunofluorescence, viability, primary screen (AID 1224863).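 As to fold increase: total CFTR protein by anti-CFTR immunofluorescence in fixed cells.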 To be noted: immunofluorescence total CFTR, 24 h, stronger effect = higher value; min viability: measured here: HeLa viability, alamarBlue, dose 20, library dosed in µg/mL unless noted; viability: measured here: primary viability 10 ug/mL, library dosed in µg/mL unless noted. (In general: The colour change of resazurin is a common sign of viable cells or microbes.)

For test [2], the target named is Cystic fibrosis transmembrane conductance regulator (Homo sapiens) (UniProt P13569). Described as above. To be noted: immunofluorescence total CFTR, 24 h; fold increase: measured here: primary screen 10 ug/mL, library dosed in µg/mL, stronger effect = higher value unless noted; max fold increase: dose 10, library dosed in µg/mL, stronger effect = higher value unless noted; outcome: library dosed in µg/mL unless noted.

One may read the viability as a read-out of living cells in per cent, often relative to untreated cells. Turning to `Cc1noc2nc(-c3ccco3)cc(C(=O)OCc3cc(=O)n4cc(Cl)ccc4n3)c12`, the viability in test [1] came to 101%. In addition, in test [2], the fold increase was found to be 1.11 and the compound was classed as inactive.
The like results for `CC1(c2ccccc2)NC(=O)N(Cc2cc(=O)n3ccccc3n2)C1=O` (centres undefined) were, in that order, 91%, 1.06 and “inactive”.
In the case of `Cn1ncc2c(NCC3(N4CCCCC4)CCCCC3)ncnc21`, the viability in test [1] stood at 96%. In test [2], the fold increase amounted to 1.05 and the outcome was inactive.
Take `CC(C(=O)NC1CCCCCC1)N1CCN(C(C)C(=O)NC2CC2)CC1` (centres undefined): the viability in test [1] came to 95%. Also, in test [2], the fold increase stood at 1.06 and the outcome was inactive.
As to `Fc1ccc(-c2[nH]ncc2CNCc2ccccc2Cn2cncn2)cc1`, the viability in test [1] turned out to be 104%. In addition, in test [2], the fold increase is 1.01 and the outcome was inactive.
For the compound `CC(c1nnc(-c2cccs2)o1)N1CCC(O)CC1` (centres undefined), the viability in test [1] was 99%. Moreover, in test [2], the fold increase came out at 1.04 and the call was inactive.
The like results for `Cn1cc(S(=O)(=O)N2CCN(Cc3nc(N)nc(N)n3)CC2)cc1C(N)=O` were, in that order, 91%, 0.98 and “inactive”.
In the case of `Cn1c(SCc2ccc(-n3cccn3)cc2)nc2ccccc21`, the viability in test [1] amounted to 92%. In addition, in test [2], the fold increase turned out to be 0.97 and the outcome was inactive.
The like results for `Cc1sc2nc(CN3CCCC3)nc(-n3nnc(-c4cccnc4)n3)c2c1C` were, in that order, 84%, 1.04 and “inactive”.
The like results for `Cc1cc(C)cc(-c2nnc(SC3CCCCC3=O)o2)c1` (centres undefined) were, in that order, 112%, 1.07 and “inactive”.
On to `CC1Oc2ccc(NC(=O)C3=NN(C)C(=O)CC3)cc2NC1=O` (centres undefined), for which, in test [1], the viability was found to be 100%. In test [2], the fold increase worked out at 0.99 and the call was inactive.
The like results for `Cc1ccc(C)c(CS(=O)(=O)Cc2ccccc2SC(F)F)c1` were, in that order, 86%, 1.03 and “inactive”.
The corresponding values for `Cc1oc(C)c(C(=O)Nc2ncn[nH]2)c1C` are 86%, 0.86 and “inactive”.
Consider `CC1CCC(NC(=O)c2ccc([N+](=O)[O-])s2)CC1` (centres undefined), for which the viability in test [1] came out at 77%. Also, in test [2], the fold increase came out at 0.76 and the call was inactive.
The corresponding values for `Cc1ccc(-n2nnnc2SCc2cn3cccc(C)c3n2)cc1C` are 79%, 0.98 and “inactive”.
The corresponding values for `C=CCOc1ccc(/C(O)=C2/C(=O)C(=O)N(CCCN(C)C)C2c2cccc(Br)c2)cc1` (centres undefined) are 91%, 1.07 and “inactive”.
The corresponding values for `O=S(=O)(c1ccc2ccccc2c1)N1CCN(S(=O)(=O)c2ccccc2Cl)CC1` are 94%, 1.06 and “inactive”.
Consider `Clc1ccc(-c2nc(Sc3ccccc3Cl)c3c4c(sc3n2)CCC4)cc1`, for which, in test [1], the viability turned out to be 91%. Further, in test [2], the fold increase worked out at 1.15 and the outcome was inactive.
Consider `Cc1c(C2Nc3ccccc3C(=O)N2c2ccc3c(c2)OCO3)cc(C#N)n1C` (centres undefined), for which the viability in test [1] was determined as 100%. Also, in test [2], the fold increase was found to be 1.05 and the compound was called inactive.
For `O=C(O)CN1C(=O)COc2cc(Br)ccc21`, the viability in test [1] was found to be 101%. Moreover, in test [2], the fold increase was 1.01 and the compound was classed as inactive.
For the compound `NC1CC(=O)N(c2ccc(Oc3ccccc3)cc2)C1` (centres undefined), in test [1], the viability amounted to 60%. Also, in test [2], the fold increase is 0.71 and the result was inactive.
The corresponding values for `Cc1cn2nc(NC3CCCC3)sc2n1` are 96%, 0.88 and “inactive”.
The corresponding values for `COc1cc(OC)c(CNC(C)c2ccc(F)cc2F)c(OC)c1` (centres undefined) are 103%, 1.05 and “inactive”.
On to `CSc1ccc(OCC(=O)c2[nH]c(C)c(C(C)=O)c2C)cc1`, for which, in test [1], the viability stood at 77%. In test [2], the fold increase was determined as 0.86 and the outcome was inactive.
Regarding `COCCn1c(SCC(=O)c2[nH]c(C)c(C(C)=O)c2C)nc2sc3c(c2c1=O)CCCC3`, the viability in test [1] worked out at 102%. In test [2], the fold increase turned out to be 1.01 and the result was inactive.
`CCCn1c(N)c(C(=O)CN2CCC(O)CC2)c(=O)[nH]c1=O`: in test [1], the viability was 91%. Further, in test [2], the fold increase was found to be 1.07 and the compound was classed as inactive.
The corresponding values for `COC(=O)c1ccc(C2NC(=O)NC(C)=C2C(=O)c2ccc(Cl)cc2)cc1` (centres undefined) are 87%, 1.02 and “inactive”.
The corresponding values for `N#CCCN1CCN(C(=O)C23CC4CC(CC(C4)C2)C3)CC1` are 86%, 1.05 and “inactive”.
For the compound `Cc1nn(Cc2ccccc2Cl)c(C)c1CN(C)c1ccc2nnnn2n1`, the viability in test [1] came to 101%. In test [2], the fold increase is 0.94 and the compound was called inactive.
The corresponding values for `O=C1c2ccccc2S(=O)(=O)NN1Cc1ccc(Br)cc1` are 110%, 0.99 and “inactive”.
The like results for `Cc1ccc(-c2nnc(NCCC(C)C)c3ccccc23)cc1C` were, in that order, 97%, 0.94 and “inactive”.
The corresponding values for `CSc1ncccc1C(=O)NC1CC2CC1C1CCCC21` (centres undefined) are 103%, 1.14 and “inactive”.
With `C=CCNC(=O)NC(=O)CN(Cc1nccn1C(F)F)C1CC1`, in test [1], the viability worked out at 83%. Also, in test [2], the fold increase worked out at 1.18 and the call was inactive.
The like results for `C=CCn1c(SCC)nnc1-c1ccc([N+](=O)[O-])cc1` were, in that order, 88%, 1.02 and “inactive”.
For the compound `CC(OC(=O)C1=Cc2ccccc2OC1)C(=O)C12CC3CC(CC(C3)C1)C2` (centres undefined), in test [1], the viability was 91%. For the same compound, in test [2], the fold increase was 1.1 and the compound was called inactive.
Consider `O=C1C2CCCCC2C(=O)N1CC(O)COCc1ccc2c(c1)OCO2` (centres undefined), for which the viability in test [1] came out at 99%. Moreover, in test [2], the fold increase amounted to 1.1 and the outcome was inactive.
Regarding `C=CCNCC(F)(F)F`, the viability in test [1] turned out to be 95%. Besides, in test [2], the fold increase came out at 1.07 and the compound was classed as inactive.
As to `O=S(=O)(C1=Cc2ccccc2CC1)N1CCCC1c1ccc(F)cc1` (centres undefined), in test [1], the viability is 97%. In test [2], the fold increase worked out at 0.99 and the result was inactive.
The like results for `CCCN(CC1CC1)C(=O)CSc1nc(C)nc2sc3c(c12)CCCC3` were, in that order, 81%, 0.94 and “inactive”.
The like results for `CC1CCCN(S(=O)(=O)N2CCC(N3CCCc4ccccc43)CC2)C1` (centres undefined) were, in that order, 82%, 0.89 and “inactive”.
Regarding `O=C(C1CCCO1)N1CCN(Cc2ccc3c(c2)CCO3)CC1` (centres undefined), in test [1], the viability is 90%. In addition, in test [2], the fold increase was found to be 1.05 and the compound was called inactive.
Take `O=c1oc2ccc([N+](=O)[O-])cc2n1CN1CCN(c2cccc(Cl)c2)CC1`: in test [1], the viability was found to be 82%. Further, in test [2], the fold increase worked out at 0.77 and the call was inactive.
For the compound `Cc1ccc(C2(C)NC(=O)N(Cc3coc(-c4ccc(C)cc4C)n3)C2=O)cc1` (centres undefined), the viability in test [1] turned out to be 85%. Also, in test [2], the fold increase stood at 0.96 and the outcome was inactive.
